# Publication PMC11311990, “Identification of Ribonuclease Inhibitors for the Control of Pathogenic Bacteria” (International Journal of Molecular Sciences, 2024)
# Sequences of proteins named here, by UniProt entry; tags and fusion partners are left off. Residues count along the entry.
# UniProt P21499, 2-813: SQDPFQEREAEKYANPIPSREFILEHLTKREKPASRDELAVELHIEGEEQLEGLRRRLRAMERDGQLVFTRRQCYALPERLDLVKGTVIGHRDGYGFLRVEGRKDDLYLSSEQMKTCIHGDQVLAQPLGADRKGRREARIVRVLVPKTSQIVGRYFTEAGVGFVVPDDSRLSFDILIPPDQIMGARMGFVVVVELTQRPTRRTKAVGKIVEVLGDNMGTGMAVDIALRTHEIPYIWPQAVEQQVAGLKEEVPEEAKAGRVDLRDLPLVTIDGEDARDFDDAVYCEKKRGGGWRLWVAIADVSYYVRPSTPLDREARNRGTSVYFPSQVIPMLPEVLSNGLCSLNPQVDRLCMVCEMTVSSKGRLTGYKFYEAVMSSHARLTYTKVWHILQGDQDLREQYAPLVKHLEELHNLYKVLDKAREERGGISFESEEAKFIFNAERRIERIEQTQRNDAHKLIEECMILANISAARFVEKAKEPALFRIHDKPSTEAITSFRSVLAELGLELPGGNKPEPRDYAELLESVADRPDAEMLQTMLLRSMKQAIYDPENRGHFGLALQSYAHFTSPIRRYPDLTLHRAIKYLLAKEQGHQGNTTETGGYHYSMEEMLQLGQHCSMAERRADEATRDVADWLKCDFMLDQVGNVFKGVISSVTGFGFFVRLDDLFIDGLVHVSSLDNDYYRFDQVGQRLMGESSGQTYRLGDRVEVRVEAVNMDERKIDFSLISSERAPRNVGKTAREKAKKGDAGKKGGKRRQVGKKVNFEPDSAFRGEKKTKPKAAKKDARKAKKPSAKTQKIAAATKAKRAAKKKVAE
# Molecular target: T1, RNase R (Escherichia coli, UniProt P21499)
# T1 construct: gene rnr; full-length recombinant, N-terminal His tag (pET15b derivative), expressed in E. coli BL21(DE3), IMAC purified
# Format: biochemical
# Settings: 10 mM compound, 10 nM enzyme, 10 nM poly(A), 1 mM MgCl2, 100 mM KCl, pH 8, 37 °C, DMSO
row,Structure (SMILES),"gel exoribonuclease assay, 5'-32P 35-nt poly(A)"
1,"CC(C)(C)c1ccc(NC(=O)Nc2cccc(S(N)(=O)=O)c2)cc1 [HTS05225, 3-({[4-(tert-butyl)anilino]carbonyl}amino)benzenesulfonamide]","HTS05225 and HTS08348, besides inhibiting RNase II activity, were found to inhibit RNase R"
2,"CCc1ccc(C(=O)Nc2ccc(S(N)(=O)=O)cc2)cc1 [HTS08348, N-[4-(aminosulfonyl)phenyl]-4-ethylbenzamide]","HTS05225 and HTS08348, besides inhibiting RNase II activity, were found to inhibit RNase R"
